The campaign covered roughly 350,000 compounds. About 450 (0.13%) were called active.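 Rule for the calls: active = replicate mean at a twofold rise or more (about +100% in these data); inactive = the rest.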 Shown is part of a subset that was picked to be rich in actives.

The nature of this assay: UUG initiation codon usage in yeast – whole organism, S. cerevisiae, single point, plate reader, primary screen (AID 602363).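 Note: firefly luciferase made from a UUG start codon reports start codon fidelity.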 The conditions noted are these: S. cerevisiae UUG-firefly luciferase reporter, luminescence/redox ratio; at 18.7 µM; hits give high values. Background: In a reporter assay the amount or activity of a reporter protein is the signal.
As for `COc1cccc(S(=O)(=O)N[C@@H]2CC[C@@H](CCNC(=O)Cc3ccncc3)O[C@H]2CO)c1`, the activity score is 0.154% (inactive).
As to `C[C@@H]1CN([C@@H](C)CO)C(=O)c2cc(-c3cccnc3)cnc2O[C@@H]1CN(C)C(=O)C1CC1`, the activity score was -5.34% (inactive).
With `O=C(C[C@@H]1C[C@@H]2c3cc(NC(=O)Nc4ccc(C(F)(F)F)cc4)ccc3O[C@@H]2[C@@H](CO)O1)NCCc1ccccc1`, the activity score is -18.2% (inactive).
The value for `C[C@@H]1CCCCO[C@H](CN(C)S(=O)(=O)c2cccs2)[C@@H](C)CN([C@@H](C)CO)C(=O)c2cc(NC(=O)NC3CCCCC3)ccc2O1` was -8.53% (inactive).
The result for `CO[C@@H]1CN(C)C(=O)c2cc(NC(=O)C3CC3)ccc2OC[C@@H](C)N(C(=O)c2ccncc2)C[C@H]1C` reads 0.045% (inactive); that for `CN(C)C(=O)c1ccc(-c2ccc([C@@H]3[C@@H](CO)N4CCCCN(Cc5cncnc5)C[C@@H]34)cc2)cc1`, -3.82% (inactive).
Turning to `O=C(c1ccccc1F)N1C[C@@H]2[C@H](c3ccccc31)[C@H](CO)N2C(=O)C1CCCC1`, the activity score is 6.27% (inactive).
Take `O=C(C1CCC1)N1C[C@@H]2[C@H](c3ccccc31)[C@H](CO)N2C(=O)c1ccccc1`: the activity score was 53.9% (inactive).
In the case of `O=C(c1cccnc1)N1C[C@H]2[C@@H](c3ccccc31)[C@H](CO)N2C(=O)C1CC1`, the activity score is 101% (active).
Consider `O=C(c1cccnc1)N1C[C@@H]2[C@H](c3ccccc31)[C@@H](CO)N2C(=O)Nc1ccc(F)cc1`, for which the activity score is 52.2% (inactive).
Turning to `O=C(C1CCC1)N1C[C@H]2[C@@H](c3ccccc31)[C@@H](CO)N2C(=O)c1ccccc1F`, the activity score was 115% (active).
As to `O=C(c1cccnc1)N1C[C@H]2[C@@H](c3ccccc31)[C@H](CO)N2C(=O)C1CCCCC1`, the activity score was -1.65% (inactive).
The result for `COc1ccccc1-c1cn(CC[C@H]2CC[C@H](NC(=O)C3CCOCC3)[C@@H](CO)O2)nn1` reads -2.48% (inactive); that for `C[C@@H]1CN([C@H](C)CO)S(=O)(=O)c2ccc(-c3ccccc3)cc2O[C@@H]1CN(C)C(=O)C1CC1`, 1.27% (inactive).
Regarding `Cn1cnc(CCNC(=O)C[C@H]2CC[C@H]3[C@@H](COC[C@H](O)CN3C(=O)C3CCCC3)O2)c1`, the activity score was 2.13% (inactive).
Take `C[C@@H]1CCCCO[C@@H](CN(C)C(=O)Nc2ccc(F)cc2)[C@H](C)CN([C@@H](C)CO)C(=O)c2cc(NS(=O)(=O)c3ccccc3)ccc2O1`: the activity score is -2.99% (inactive).
Regarding `CCCC(=O)Nc1ccc2c(c1)C(=O)N(C)[C@H]1CC[C@@H](CC(=O)NCc3ccccc3)O[C@@H]1CO2`, the activity score was 6.07% (inactive).
In the case of `COc1cccc(S(=O)(=O)N2C[C@@H](O)COC[C@@H]3O[C@H](CC(=O)N4CCN(C)CC4)CC[C@H]32)c1`, the activity score was 25.3% (inactive).
The value for `O=C(C1CCC1)N1C[C@H]2[C@@H](c3ccccc31)[C@H](CO)N2C(=O)Nc1cccc(F)c1` was 4.33% (inactive).
For `CN1c2ccc(C#Cc3cccnc3)cc2[C@H]2[C@H](CCN2S(=O)(=O)c2ccccc2)[C@@H]1CO`, the activity score is -20.3% (inactive).
For `C[C@H]1CN([C@@H](C)CO)C(=O)c2cc(NC(=O)Cn3cnnn3)ccc2O[C@@H]1CN(C)CC1CCCCC1`, the activity score is -6.95% (inactive).
For the molecule `C[C@H]1CN([C@@H](C)CO)C(=O)c2cc(Br)cnc2O[C@@H]1CN(C)C(=O)c1ccccc1F`, the activity score is 1.14% (inactive).
`C[C@@H]1CCCCO[C@H](CN(C)Cc2ccc3c(c2)OCO3)[C@H](C)CN([C@@H](C)CO)C(=O)c2cc(NS(=O)(=O)c3cn(C)cn3)ccc2O1`: the activity score is 0.464% (inactive).
For `C[C@H]1CCCCO[C@H](CN(C)CC2CCCCC2)[C@@H](C)CN([C@@H](C)CO)C(=O)c2cc(NS(=O)(=O)c3ccc(Cl)cc3)ccc2O1`, the activity score is 19.2% (inactive).
For the molecule `Cc1noc(C)c1S(=O)(=O)Nc1ccc2c(c1)C(=O)N([C@@H](C)CO)C[C@@H](C)[C@@H](CN(C)S(=O)(=O)c1ccccc1)O2`, the activity score was -1.76% (inactive).
The value for `C[C@H]1CN([C@@H](C)CO)C(=O)c2cccc(NC(=O)C3CC3)c2O[C@@H]1CN(C)S(=O)(=O)c1ccc(F)cc1` was -5.43% (inactive).
`CN(C)CC(=O)Nc1ccc2c(c1)[C@@H]1C[C@H](CC(=O)NCc3ccc(Cl)cc3)O[C@@H](CO)[C@@H]1O2`: the activity score was 26.4% (inactive).
In the case of `COCC(=O)Nc1ccc2c(c1)C(=O)N(C)[C@@H]1CC[C@H](CC(=O)NCC3CCCCC3)O[C@H]1CO2`, the activity score is -1.78% (inactive).
With `CNC(=O)C[C@@H]1CC[C@@H]2[C@@H](COc3ccc(NC(=O)Cc4cccs4)cc3C(=O)N2C)O1`, the activity score is 3.32% (inactive).
The value for `CC(C)C#Cc1ccc2c(c1)O[C@@H](CN(C)C(=O)C1CC1)[C@H](C)CN([C@H](C)CO)S2(=O)=O` was 1.46% (inactive); that for `O=S(=O)(Cc1ccccc1)N1CCCCN2[C@H](CO)[C@@H](c3ccc(-c4cncnc4)cc3)[C@H]2C1` was -10.2% (inactive).
The value for `COc1ccc(NC(=O)N(C)C[C@@H]2OCCCC[C@H](C)Oc3ccc(NS(=O)(=O)c4cccs4)cc3C(=O)N([C@@H](C)CO)C[C@@H]2C)cc1` was -14.6% (inactive); that for `C[C@H]1CN([C@@H](C)CO)C(=O)c2cccc(NS(C)(=O)=O)c2O[C@@H]1CN(C)C(=O)Nc1ccc(F)cc1` was -0.709% (inactive); that for `COCC(=O)N(C)C[C@H]1Oc2ncc(-c3cccc(OC)c3)cc2C(=O)N([C@H](C)CO)C[C@H]1C` was 11.3% (inactive).
`CO[C@H]1CN(C)C(=O)c2ccc(NS(=O)(=O)c3cn(C)cn3)cc2OC[C@@H](C)N(C)C[C@@H]1C`: the activity score was -8.25% (inactive).
With `C[C@@H]1CN([C@H](C)CO)C(=O)Cc2cc(NC(=O)CCCN(C)C)ccc2O[C@H]1CN(C)S(=O)(=O)c1cccs1`, the activity score is 4.48% (inactive).
As to `CCC(=O)N1[C@@H](CO)[C@@H]2c3ccccc3N(C(=O)c3cnccn3)C[C@@H]21`, the activity score is -8.18% (inactive).
Turning to `O=C(N[C@@H]1CC[C@@H](CCNS(=O)(=O)Cc2ccccc2)O[C@@H]1CO)c1ccccc1F`, the activity score is -4.32% (inactive).
Regarding `CC(C)NC(=O)N[C@@H]1CC[C@@H](CCNS(=O)(=O)Cc2ccccc2)O[C@@H]1CO`, the activity score is -4.26% (inactive).
As for `O=C(N[C@H]1CC[C@@H](CCNS(=O)(=O)Cc2ccccc2)O[C@H]1CO)c1ccccc1F`, the activity score was 170% (active).
Regarding `C[C@@H]1CCCCO[C@H](CN(C)C(=O)Cc2ccccc2)[C@@H](C)CN([C@@H](C)CO)C(=O)c2cc(NC(=O)c3ccccc3)ccc2O1`, the activity score is 0.371% (inactive).
On to `COc1ccc(CCN2C(=O)[C@@]3(Cc4ccccc42)c2ccccc2C(=O)N(Cc2ccccc2C(F)(F)F)[C@H]3c2ccc(CO)cc2)cc1`, for which the activity score is 153% (active).
For `COCCCNC(=O)[C@@]1(C)c2ccccc2C(=O)N(Cc2ccc(OC(F)(F)F)cc2)[C@H]1c1ccc(CO)cc1`, the activity score was 2.89% (inactive).
Turning to `CC(C)N1C(=O)[C@@]2(Cc3ccccc31)c1ccccc1C(=O)N(C1CCCCC1)[C@H]2c1ccc(CO)cc1`, the activity score was 69% (inactive).
`COc1ccccc1NC(=O)N(C)C[C@@H]1Oc2ncc(Br)cc2C(=O)N([C@@H](C)CO)C[C@@H]1C`: the activity score was 19.9% (inactive).
Turning to `CCOC(=O)C(=Cc1ccccc1)C(=O)c1ccccc1`, the activity score was -13% (inactive).
For the molecule `CCOC(=O)C(=CNc1cccc(C)n1)C(=O)OCC`, the activity score is -12% (inactive).
Take `CCOC(=O)C(=Cc1ccccc1OC)C(=O)OCC`: the activity score is 448% (active).
For `COc1ccc(-c2cnc3c(c2)C(=O)N([C@@H](C)CO)C[C@@H](C)[C@H](CN(C)C)O3)cc1`, the activity score is -4.93% (inactive).
`N#Cc1cccc(-c2ccc3c(c2)[C@H]2[C@H](CCN2S(=O)(=O)c2ccc(F)cc2)[C@@H](CO)N3)c1`: the activity score was -15.3% (inactive).
Regarding `C[C@H]1CN([C@@H](C)CO)C(=O)Cc2cc(NC(=O)Nc3ccccc3)ccc2O[C@H]1CN(C)S(=O)(=O)c1cn(C)cn1`, the activity score is 2.53% (inactive).
For `C[C@H](CO)N1C[C@H](C)[C@@H](CN(C)Cc2cccnc2)Oc2cc(C#CC3CC3)ccc2S1(=O)=O`, the activity score was 8.44% (inactive).
For the molecule `COc1cccc(C(=O)Nc2ccc3c(c2)OC[C@H](C)N(C(C)=O)C[C@@H](C)[C@@H](OC)CN(C)C3=O)c1`, the activity score is 43.4% (inactive).
With `C/C=C/c1ccc2c(c1)O[C@@H](CN(C)C(=O)Cc1ccccc1)[C@H](C)CN([C@@H](C)CO)S2(=O)=O`, the activity score was 58.8% (inactive).
The value for `CC(C)NC(=O)N(C)C[C@H]1Oc2ccc(NC(=O)CCC(F)(F)F)cc2CC(=O)N([C@@H](C)CO)C[C@@H]1C` was -4.49% (inactive); that for `CCCC(=O)Nc1ccc2c(c1)C(=O)N(C)[C@H]1CC[C@@H](CC(=O)NCC(F)(F)F)O[C@@H]1CO2` was -2.34% (inactive).
For `CO[C@@H]1CN(C)C(=O)c2cc(NC(=O)C3CCCC3)ccc2OC[C@H](C)N(C)C[C@@H]1C`, the activity score was 3.06% (inactive).
In the case of `Cc1noc(C)c1NC(=O)Nc1ccc2c(c1)CC(=O)N([C@@H](C)CO)C[C@@H](C)[C@@H](CN(C)C(=O)NC(C)C)O2`, the activity score was -0.961% (inactive).
For the molecule `C[C@H](O)C#Cc1cnc2c(c1)C(=O)N([C@H](C)CO)C[C@H](C)[C@H](CN(C)C(=O)c1ccc(F)cc1)O2`, the activity score was 9.52% (inactive).
Turning to `CC(C)NC(=O)N(C)C[C@@H]1Oc2c(cccc2N(C)C)C(=O)N([C@@H](C)CO)C[C@H]1C`, the activity score is -11.2% (inactive).
The result for `C[C@H]1CN([C@@H](C)CO)C(=O)c2cc(NS(=O)(=O)c3cccs3)ccc2O[C@@H]1CN(C)C(=O)Nc1ccccc1` reads -9.65% (inactive); that for `C[C@@H]1CN([C@@H](C)CO)S(=O)(=O)c2ccc(C#CCN(C)C)cc2O[C@@H]1CN(C)CC1CC1`, 33.3% (inactive).
As for `C[C@@H]1CCCCO[C@@H](CN(C)Cc2ccc(C(=O)O)cc2)[C@H](C)CN([C@@H](C)CO)C(=O)c2cc(NC(=O)C3CCCCC3)ccc2O1`, the activity score was 3.06% (inactive).

Values taken from PubChem BioAssay AID602363 (Broad Institute, 2012).
